Reference: US20230017786A1 (priority 2020, published 2023)
Structures can show the parent of a compound that is named as a salt.

The chains behind the UniProt entries cited, without tags or fusion partners. Residues count along the entry.
UniProt Q14957, 20-1233: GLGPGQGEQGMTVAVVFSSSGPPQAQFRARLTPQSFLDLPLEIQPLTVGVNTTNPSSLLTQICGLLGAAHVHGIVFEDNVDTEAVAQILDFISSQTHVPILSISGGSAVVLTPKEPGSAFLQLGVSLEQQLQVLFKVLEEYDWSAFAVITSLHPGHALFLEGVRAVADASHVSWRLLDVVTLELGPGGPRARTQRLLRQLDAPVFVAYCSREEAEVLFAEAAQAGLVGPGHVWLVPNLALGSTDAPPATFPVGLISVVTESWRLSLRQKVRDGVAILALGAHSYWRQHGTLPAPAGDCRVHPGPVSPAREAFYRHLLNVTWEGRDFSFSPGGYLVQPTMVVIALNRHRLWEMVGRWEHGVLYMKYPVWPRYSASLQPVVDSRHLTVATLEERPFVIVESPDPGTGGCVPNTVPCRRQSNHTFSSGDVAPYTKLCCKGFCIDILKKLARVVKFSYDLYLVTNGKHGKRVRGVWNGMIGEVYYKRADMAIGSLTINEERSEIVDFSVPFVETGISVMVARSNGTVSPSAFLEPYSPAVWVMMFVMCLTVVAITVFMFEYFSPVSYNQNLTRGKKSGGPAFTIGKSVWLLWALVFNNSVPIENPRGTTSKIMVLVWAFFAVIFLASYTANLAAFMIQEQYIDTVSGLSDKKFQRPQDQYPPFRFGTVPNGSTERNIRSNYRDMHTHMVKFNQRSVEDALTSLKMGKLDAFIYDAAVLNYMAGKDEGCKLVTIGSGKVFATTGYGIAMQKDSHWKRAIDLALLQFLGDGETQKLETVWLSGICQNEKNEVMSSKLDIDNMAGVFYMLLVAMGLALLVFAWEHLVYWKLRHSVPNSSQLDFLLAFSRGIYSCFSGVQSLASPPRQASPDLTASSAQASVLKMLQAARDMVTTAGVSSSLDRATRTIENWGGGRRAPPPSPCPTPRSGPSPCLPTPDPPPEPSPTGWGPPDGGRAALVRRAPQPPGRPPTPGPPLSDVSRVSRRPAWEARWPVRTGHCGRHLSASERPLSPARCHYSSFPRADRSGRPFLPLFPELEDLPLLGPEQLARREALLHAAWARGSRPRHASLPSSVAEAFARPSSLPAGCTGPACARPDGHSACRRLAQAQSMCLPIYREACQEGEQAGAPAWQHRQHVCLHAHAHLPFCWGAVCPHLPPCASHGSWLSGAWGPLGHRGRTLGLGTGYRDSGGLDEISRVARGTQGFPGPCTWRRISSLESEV

Target: T1, human NMDA receptor GluN1-GluN2C (Homo sapiens, UniProt Q05586+Q14957)
T1 construct: expressed in transfected cells; host or cells: CHO
Assay: FLIPR calcium assay, test item effect on L-glutamate CRC, GluN1-GluN2C-CHO
Format: cell-based
Conditions: with test item 781 nM

CC12CC3CC(C)(C1)CC(N)(C3)C2 [Memantine, memantine hydrochloride]
L-glutamate CRC LogEC50: −6.6
